Experimental data from patent US20170157260A1, “Glycosylated Polypeptide and Drug Composition Containing said Polypeptide” (Glytech, Inc., priority 2011, published 2017).
Read-outs that look alike come from different tables or passages of the source.

By UniProt entry, the sequences of proteins in these tests, tags left out. Where a name states a change or a piece, a line headed by the entry shows the natural chain unless it says otherwise.
UniProt P30874: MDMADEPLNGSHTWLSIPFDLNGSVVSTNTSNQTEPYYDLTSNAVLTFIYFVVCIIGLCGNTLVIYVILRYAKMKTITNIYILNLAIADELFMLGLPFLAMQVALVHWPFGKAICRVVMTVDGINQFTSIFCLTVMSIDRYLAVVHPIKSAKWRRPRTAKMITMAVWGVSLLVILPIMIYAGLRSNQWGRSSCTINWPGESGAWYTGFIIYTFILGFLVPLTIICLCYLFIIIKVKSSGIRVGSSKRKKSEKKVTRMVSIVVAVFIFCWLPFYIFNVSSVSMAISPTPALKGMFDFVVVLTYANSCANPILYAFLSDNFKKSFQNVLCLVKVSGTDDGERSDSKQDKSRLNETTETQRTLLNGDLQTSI
UniProt P32745: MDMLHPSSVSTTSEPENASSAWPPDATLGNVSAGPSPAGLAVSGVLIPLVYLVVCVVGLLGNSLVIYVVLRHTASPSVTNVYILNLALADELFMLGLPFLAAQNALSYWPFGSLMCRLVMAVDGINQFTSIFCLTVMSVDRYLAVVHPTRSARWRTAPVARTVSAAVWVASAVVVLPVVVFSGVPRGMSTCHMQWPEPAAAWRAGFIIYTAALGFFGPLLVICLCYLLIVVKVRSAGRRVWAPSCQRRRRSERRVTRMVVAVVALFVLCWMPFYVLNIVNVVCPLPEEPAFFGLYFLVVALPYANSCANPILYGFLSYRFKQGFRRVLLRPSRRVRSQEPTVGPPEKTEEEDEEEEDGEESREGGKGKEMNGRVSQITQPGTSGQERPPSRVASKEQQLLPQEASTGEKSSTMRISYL
UniProt P35346: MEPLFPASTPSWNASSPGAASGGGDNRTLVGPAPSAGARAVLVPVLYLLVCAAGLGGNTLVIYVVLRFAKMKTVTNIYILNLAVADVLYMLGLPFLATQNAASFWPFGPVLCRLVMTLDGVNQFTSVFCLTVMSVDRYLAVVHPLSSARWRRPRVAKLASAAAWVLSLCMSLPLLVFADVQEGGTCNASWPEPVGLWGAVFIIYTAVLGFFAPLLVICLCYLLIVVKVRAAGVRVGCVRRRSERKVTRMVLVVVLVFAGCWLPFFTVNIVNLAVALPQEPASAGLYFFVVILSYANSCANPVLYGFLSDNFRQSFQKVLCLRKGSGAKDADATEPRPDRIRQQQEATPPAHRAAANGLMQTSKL
UniProt P30872: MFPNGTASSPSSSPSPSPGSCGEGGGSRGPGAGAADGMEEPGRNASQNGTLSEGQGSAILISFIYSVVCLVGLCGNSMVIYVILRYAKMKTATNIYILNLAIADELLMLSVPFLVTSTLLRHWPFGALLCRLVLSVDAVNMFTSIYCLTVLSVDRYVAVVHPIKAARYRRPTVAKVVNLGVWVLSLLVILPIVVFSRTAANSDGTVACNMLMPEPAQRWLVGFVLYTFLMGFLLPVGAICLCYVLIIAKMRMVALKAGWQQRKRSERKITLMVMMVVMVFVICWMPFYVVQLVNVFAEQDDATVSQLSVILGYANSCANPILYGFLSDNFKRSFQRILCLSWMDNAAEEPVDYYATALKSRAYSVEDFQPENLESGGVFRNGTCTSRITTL
UniProt P31391: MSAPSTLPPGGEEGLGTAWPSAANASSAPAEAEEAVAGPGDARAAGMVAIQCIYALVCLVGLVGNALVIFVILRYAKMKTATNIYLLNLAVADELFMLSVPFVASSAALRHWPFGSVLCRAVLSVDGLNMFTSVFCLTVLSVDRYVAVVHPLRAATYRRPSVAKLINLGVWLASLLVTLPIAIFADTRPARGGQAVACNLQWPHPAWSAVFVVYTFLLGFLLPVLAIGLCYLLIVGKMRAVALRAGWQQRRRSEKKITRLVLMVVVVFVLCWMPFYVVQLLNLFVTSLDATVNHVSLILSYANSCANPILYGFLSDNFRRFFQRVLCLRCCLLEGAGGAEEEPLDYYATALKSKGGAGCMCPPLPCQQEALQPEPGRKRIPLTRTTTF

Assays:
SSTR2 [1] = target: T1, SSTR2 (Homo sapiens, UniProt P30874); assay: Agonist activity evaluation (cAMP production suppression), SSTR2 receptor expression cells; format: cell-based; design: host or cells: CHO-K1 cells
SSTR3 [2] = target: T2, SSTR3 (Homo sapiens, UniProt P32745); assay: Agonist activity evaluation (cAMP production suppression), SSTR3 receptor expression cells; format: cell-based; design: host or cells: CHO-K1 cells
SSTR5 [3] = target: T3, SSTR5 (Homo sapiens, UniProt P35346); assay: Agonist activity evaluation (cAMP production suppression), SSTR5 receptor expression cells; format: cell-based; design: host or cells: CHO-K1 cells
SSTR1 [4] = target: T4, SSTR1 (Homo sapiens, UniProt P30872); assay: Competitive binding assay, SSTR1; settings: Table 3B, Example 67-2, competitive binding assay; for IC50: read-out: SSTR1 IC50; for Ki: read-out: SSTR1 Ki
SSTR2 [5] = target: T1, SSTR2; assay: Competitive binding assay, SSTR2; settings: Table 3B, Example 67-2, competitive binding assay; for IC50: read-out: SSTR2 IC50; for Ki: read-out: SSTR2 Ki
SSTR3 [6] = target: T2, SSTR3; assay: Competitive binding assay, SSTR3; settings: Table 3B, Example 67-2, competitive binding assay; for IC50: read-out: SSTR3 IC50; for Ki: read-out: SSTR3 Ki
SSTR5 [7] = target: T3, SSTR5; assay: Competitive binding assay, SSTR5; settings: Table 3B, Example 67-2, competitive binding assay; for IC50: read-out: SSTR5 IC50; for Ki: read-out: SSTR5 Ki
[8] = Pharmacokinetics test with rats (intravenous and subcutaneous administration); settings: rats; for BA: subcutaneous vs intravenous
SSTR4 = SSTR4 (Homo sapiens, UniProt P31391); assay: Agonist activity evaluation (cAMP production suppression), SSTR4 receptor expression cells; format: cell-based
SSTR1 [9] = target: T4, SSTR1
SSTR2 [10] = target: T1, SSTR2
SSTR3 [11] = target: T2, SSTR3
SSTR1 [12] = target: T4, SSTR1; assay: Agonist activity evaluation (cAMP production suppression), SSTR1 receptor expression cells; format: cell-based
SSTR5 [13] = target: T3, SSTR5
[14] = test system: growth hormone (GH) production; assay: GH production suppression test with rats; format: in vivo; settings: Table 8 (Example 87), vehicle 1012
[15] = Table 3E, Example 67-4, read-out: IC50 of the agonist activity, SSTR1
[16] = Table 5E, intravenous, unit as in Table 4
[17] = Table 5E, subcutaneous, unit as in Table 4

Row | Substance | IC50 (SSTR1 [4]) [nM] | Ki (SSTR1 [4]) [nM] | IC50 (SSTR2 [5]) [nM] | Ki (SSTR2 [5]) [nM] | IC50 (SSTR3 [6]) [nM] | Ki (SSTR3 [6]) [nM] | IC50 (SSTR5 [7]) [nM] | Ki (SSTR5 [7]) [nM] | Intravenous administration AUC ([8]; Tables 5B-5F (Examples 73-84)) [nM·min] | Intravenous administration C0 ([8]; Tables 5B-5F (Examples 73-84)) [nM] | Intravenous administration MRT ([8]; Tables 5B-5F (Examples 73-84)) [min] | Intravenous administration T1/2 ([8]; Tables 5B-5F (Examples 73-84)) [min] | Subcutaneous administration AUC ([8]; Tables 5B-5F (Examples 73-84)) [nM·min] | Subcutaneous administration Cmax ([8]; Tables 5B-5F (Examples 73-84)) [nM] | Subcutaneous administration MRT ([8]; Tables 5B-5F (Examples 73-84)) [min] | Subcutaneous administration T1/2 ([8]; Tables 5B-5F (Examples 73-84)) [min] | BA ([8]; Tables 5B-5F (Examples 73-84)) [%] | IC50 (SSTR1 [9]) [nM] | Ki (SSTR1 [9]) [nM] | IC50 (SSTR2 [10]) [nM] | further results
1 | C(disialo)-PEG linker-SRIF14 [Example 43] | 36 | 30 | 4.67 | 2.48 | 8.71 | 2.98 | > 10 | > 5.65 | 3538 | 412 | 18.8 | 16.4 | 2725 | 47.8 | 39.2 | 20.7 | 77 |  |  |  | IC50 (SSTR2 [1]; read-out: IC50 of the agonist activity, SSTR2, Table 3E, Example 67-4): 0.034 nM; IC50 (SSTR3 [2]; read-out: IC50 of the agonist activity, SSTR3; Table 3E, Example 67-4): 0.15 nM; IC50 (SSTR5 [3]; read-out: IC50 of the agonist activity, SSTR5, Table 3E, Example 67-4): 0.16 nM
2 | N5C(disialo)-A9C(disialo)-SRIF28 [Example 23] |  |  |  |  |  |  |  |  |  |  |  |  |  |  |  |  |  | 30 | 24.9 | 0.793 | IC50 (SSTR4; Table 3E, Example 67-4, read-out: IC50 of the agonist activity, SSTR4): 0.091 nM; Ki (SSTR2 [10]): 0.421 nM; Ki (SSTR3 [11]): 1.49 nM; IC50 (SSTR2 [1]; Table 3E, Example 67-4, read-out: IC50 of the agonist activity, SSTR2): 0.096 nM; IC50 (SSTR3 [2]; Table 3E, Example 67-4; read-out: IC50 of the agonist activity, SSTR3): 0.29 nM; IC50 (SSTR5 [3]; Table 3E, Example 67-4, read-out: IC50 of the agonist activity, SSTR5): 0.13 nM; BA ([8]; BA=(AUC(sc)/Dose(sc))/(AUC(iv)/Dose(iv)), Table 5A): 77%
3 | N19C(disialo)-SRIF28 [Example 10] |  |  |  |  |  |  |  |  |  | 407 | 21.5 | 18.8 |  | 41.7 | 55.3 | 37.9 |  | 15.1 | 13.3 | 1.21 | IC50 (SSTR1 [12]; [15]): 22 nM; Ki (SSTR2 [10]): 0.615 nM; IC50 (SSTR3 [11]): 1.17 nM; Ki (SSTR3 [11]): 0.603 nM; IC50 (SSTR5 [13]): 3.69 nM; Ki (SSTR5 [13]): 2.09 nM
4 | S1C(asialo)-SRIF28 [Example 27] | 3.97 | 3.29 | 0.2 | 0.105 | 1.02 | 0.349 | 1.04 | 0.588 | 4802 | 749 | 12.5 | 13.4 | 710 | 17.2 | 29.0 | 19.7 | 16 |  |  |  | IC50 (SSTR1 [12]; Table 3D, Example 67-3, read-out: IC50 of cAMP production suppressing action (agonist activity), SSTR1): 1.6 ± 0.6 nM; IC50 (SSTR4; Table 3D, Example 67-3, read-out: IC50 of cAMP production suppressing action (agonist activity), SSTR4): 0.039 ± 0.021 nM; GH ([14]; dose 1 nmol/kg): 879 ng/mL; GH ([14]; dose 3 nmol/kg): 515 ng/mL; GH ([14]; dose 10 nmol/kg): 146 ng/mL; IC50 (SSTR2 [1]; Table 3D, Example 67-3, read-out: IC50 of cAMP production suppressing action (agonist activity), SSTR2): 0.041 ± 0.006 nM; IC50 (SSTR5 [3]; Table 3D, Example 67-3, read-out: IC50 of cAMP production suppressing action (agonist activity), SSTR5): 0.055 ± 0.031 nM; C0, intravenous administration ([8]; Table 5E, intravenous, extrapolation, unit as in Table 4): 749 nM; MRT, intravenous administration [8, 16]: 12.5 min; T1/2, intravenous administration [8, 16]: 13.4 min; AUC, subcutaneous administration [8, 17]: 710 nM·min; Cmax, subcutaneous administration [8, 17]: 17.2 nM; MRT, subcutaneous administration [8, 17]: 29.0 min; T1/2, subcutaneous administration [8, 17]: 19.7 min; BA (bioavailability), subcutaneous administration ([8]; Table 5E, formula of b926): 16%; extension of t1/2 compared to the non-glycosylated form (SRIF28 or SRIF14) ([8]; administered intravenously): 10 folds; increase of AUC compared to the non-glycosylated form (SRIF28 or SRIF14) ([8]; administered intravenously): 10 folds
5 | S1C(disialo(Bn))-SRIF28 [Example 59] |  |  | 0.247 | 0.13 | 2.15 | 0.733 | 3.25 | 1.83 |  |  |  |  |  |  |  |  | 28 |  |  |  | IC50 (SSTR1 [12]; [15]): 1.4 nM; GH ([14]; dose 10 nmol/kg): 49 ng/mL
